From US6177447A (Universiteit van Amsterdam, priority 1996, dated 2001) come the findings set out here.

The experiment concerns the target lysosomal a-glucosidase (Homo sapiens, UniProt P10253). The experiment in a line: purified lysosomal a-glucosidase activity towards 4MU-a-glucoside. It is filed as biochemical.

On to `OCC1C(O)C(O)C(O)CN1CCCCCOCC12CC3CC(CC(C3)C1)C2` (stereo not shown), for which the Ki – broadly, a measure of affinity in units of concentration, obtained from inhibition or displacement – was 870 nM.
